Source: PubChem (National Center for Advancing Translational Sciences (NCATS))
GALK inh = blocks human galactokinase activity; P51570; Purified GALK, Kinase-Glo residual ATP luminescence; Potency, µM (highest dose often 57.5 µM), for the others: at the top dose activity change, negative = inhibition, most hits filed as inhibitors; 270,000 compounds, 0.007% hits; note: potency is the fitted concentration of half-maximal effect; % is set by controls: 0 for no effect and ±100 for the full control effect
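The enzyme phosphorylates galactose (100 uM) using ATP (35 uM); inhibition is detected as higher residual ATP, quantified by bioluminescence after 1 h reaction at room temperature, pH 8.0.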
TrxR1 substrate = is turned over as a substrate by rat TrxR1. purified TrxR1 substrate turnover, NADPH consumption readout. 390,000 compounds, 0.01% hits. AID 588456. Potency, µM (titrated, usually from 114 µM), inactives show at the top dose activity change, negative = substrate turnover. O89049; note: potency is the fitted concentration of half-maximal effect; % is set by controls: 0 for no effect and ±100 for the full control effect; nearly all actives have a fitted effect of over 50% in size
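Rat TrxR1, dispensed at 90 nM, was prereduced with 400 uM NADPH (final) for 5 min at ~22 deg C, then incubated with compound 15 min before 400 uM selenite. A first-read NADPH fluorescence drop versus no-compound background flagged substrates.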
miR-21 reporter = miR-21 reporter, rising signal; HeLa miR-21 FLuc reporter, luciferase, 48 h; Potency, µM (titrated, usually from 38.3 µM), without a hit: top-dose reporter change, positive = more light; AID 2288; 340,000 tested, under 10 active; active = well fitted rising curve with a large enough effect; inconclusive = small, poorly fitted or top-dose-only effect; inactive = no such curve, though single readings can be large or run the other way;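 further: % of control where 0% means no effect; miR-21 action dims this reporter so a rising signal means less miR-21 action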
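HeLa miR-21-FLuc reporter line, endogenous miR-21; 2000 cells/well in DMEM/10% FBS; compound titration up to ~40uM final, 48 h, 37 degree Celsius; luciferase detection reagent, 15 min lysis, CCD luminescence.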
PINK1 modulator = changes PINK1 expression. PINK1 immunofluorescence, high-content cytometry, 24 h. Potency, µM (doses to about 76.6 µM), inactives show at the highest dose activation (PINK1 increase), hits mostly activators. 410,000 compounds, 0.2% hits. AID 624263; active = well fitted activation curve with a large enough effect; inconclusive = small, poorly fitted or top-dose-only effect; cell line not stated here; note: potency is the fitted concentration of half-maximal effect; % of control where 0% means no effect; nearly all actives have a fitted effect of over 65% in size
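PINK1 protein, normally rapidly degraded, was detected by immunofluorescence after 24 hour compound treatment of a stable cell line. Titration data (5 concentrations) came from laser-scanning cytometry, with CCCP-treated wells as controls.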
rTrxR1 inhibitor = blocks rat thioredoxin reductase 1; O89049; recombinant rTrxR1, NADPH fluorescence consumption, selenite substrate; Potency, µM (highest dose often 114 µM), inactives show at the highest dose activity change, negative = inhibition, usual class: inhibitors; 390,000 compounds, 1% hits; AID 588453; note: potency is the fitted concentration of half-maximal effect; % is set by controls: 0 for no effect and ±100 for the full control effect; nearly all actives have a fitted effect of over 65% in size
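Rat TrxR1 (90 nM in the dispensed reagent) was pre-reduced with 400 uM NADPH for 5 min at room temperature, then incubated with compound for 15 min. After 400 uM selenite was added, NADPH fluorescence (Ex 340/Em 450 nm) was followed for 8 min.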
* hit, by the source's call; u = inconclusive; x = no result given; ! = not active in a repeat; [ ] = another dose, or the depositor's remark. Most compounds without a hit are left out; they make up all but 1.1% or so of the library. Unless noted, calls come from the whole dose curve; as a rule, active = well fitted curve in the direction sought with a large enough effect; inconclusive = small, poorly fitted or top-dose-only effect, or another doubt; inactive = no such curve, though single readings can be large; an effect the other way counts as inactive or inconclusive.

Screens by letter – A = GALK inh; B = TrxR1 substrate; C = miR-21 reporter; D = PINK1 modulator; E = rTrxR1 inhibitor
(1) Cc1c(C(=O)Oc2cc(N)n(S(C)(=O)=O)n2)cccc1[N+](=O)[O-]
  A = 4%	B = 5%	C = -2%	D = -1%	E = 25µM*
(2) Cc1cc[n+](CCC2CCCCC2)c2ccccc12
  A = x	B = 16%	C = x	D = x	E = 22%
(3) O=C(/C=C/c1ccc([N+](=O)[O-])cc1)c1cccnc1
  A = 0%	B = -4%	C = 0%	D = -1%	E = 32µM*
(4) N[C@@H](C(=O)O)c1ccc(O)c(C(=O)O)c1
  A = x	B = 287%	C = x	D = x	E = 47%
(5) O=[N+]([O-])c1cc(C(F)(F)F)ccc1NCCc1c[nH]c2ccc(O)cc12
  A = 1%	B = -9%	C = -15%	D = 11µM*	E = 11%
(6) CN1C=CC2=C(C#N)C(N)C(C#N)(C#N)C(c3ccccc3)C2C1 (stereo not drawn)
  A = 4%	B = 42%	C = 2%	D = 11µM*	E = -10%
(7) COc1ccc(-n2nc3ccc(NC(=O)c4c(OC)cccc4OC)cc3n2)cc1
  A = x	B = 147%	C = -7%	D = 0%	E = 95%
(8) CCc1cccc(-n2c(=O)c3cccnc3n2CC(=O)Nc2ccccc2C(=O)OC)c1
  A = x	B = 7%[57.1 µM]	C = 0%	D = 1%	E = 12%[57.1 µM]
(9) COc1ccc(-n2c(-c3ccc(Br)cc3)c[n+]3c2CCc2ccccc2-3)cc1
  A = -1%	B = -9%	C = u	D = 28µM*	E = -19%
(10) CCOc1ccc(-n2c(-c3ccc(Br)cc3)c[n+]3c2CCCCC3)cc1
  A = 0%	B = 3%[57.1 µM]	C = u	D = u	E = 6%[57.1 µM]
(11) CCOc1ccc(-n2c(-c3ccc(OC)cc3)c[n+]3c2CCCCC3)cc1
  A = -2%	B = -15%[57.1 µM]	C = u	D = 16µM*	E = 18%[57.1 µM]
(12) Cc1ccc(C2=Nc3ccccc3NC(c3ccncc3)=N2)cc1
  A = x	B = -11%	C = 7%	D = -1%	E = 4%
(13) N#Cc1cccc(NC(=O)N2CC[C@@]3(CCCNC3)C2)c1
  A = x	B = x	C = x	D = 0%	E = x
(14) O=C(NN=Cc1ccc(N2CCOCC2)s1)c1ccc([N+](=O)[O-])cc1
  A = x	B = -7%	C = x	D = 16µM*	E = -9%
(15) O=C(N/N=C/c1ccc(N2CCOCC2)o1)c1cccc([N+](=O)[O-])c1
  A = x	B = -11%	C = 0%	D = -2%	E = 3.2µM*
(16) O=C(N/N=C/c1ccc(N2CCCCC2)o1)c1ccccc1
  A = 3%	B = -3%	C = -15%	D = -1%	E = 2.8µM*
(17) CC(=O)N1CCOc2cc(S(=O)(=O)NCc3ccccc3Cl)c(Cl)cc21
  A = x	B = -4%	C = -3%	D = 1%	E = -1%
(18) COC(=O)C(=C/C(C)=C/c1cccnc1)C(=O)OC
  A = -2%	B = -7%	C = 26%	D = 6%	E = 56µM*
(19) O=C(CCNc1cccc(Cl)c1)c1cccs1
  A = -2%	B = 6%	C = -31%	D = -3%[38.3 µM]	E = 10µM*
(20) Cc1ccc(NCCC(=O)c2ccc(Cl)cc2)cc1C
  A = 0%	B = 14%	C = -3%	D = 14%[38.3 µM]	E = 50µM*
(21) Cc1ccc(NCCC(=O)c2cccs2)cc1C
  A = -1%	B = 13%[57.1 µM]	C = -50%	D = 2%	E = 4.5µM*
(22) CC(C)c1ccc(NCCC(=O)c2cccs2)cc1
  A = 1%	B = -4%	C = -56%	D = -2%	E = 2.8µM*
(23) Cc1ccc(NCCC(=O)c2cccs2)cc1Cl
  A = 0%	B = -4%	C = -17%	D = 6%	E = u
(24) Cc1ccc(NCCC(=O)c2cccs2)cc1
  A = 3%	B = 3%	C = -38%	D = 3%	E = u
(25) CCc1ccc(NCCC(=O)c2ccc(Cl)cc2)cc1
  A = 1%	B = 13%	C = -3%	D = x	E = u
(26) CCC1CN(C(=O)N2CCC(C(=O)NCc3ccc(N(C)C)cc3)CC2)c2ccccc2O1 (stereo not drawn)
  A = x	B = -5%[11.4 µM]	C = 20%	D = 2%	E = 15%
(27) Cc1ccc(O)c(NC(=O)c2ccc(Br)c(S(=O)(=O)N3CCCCC3)c2)c1
  A = x	B = -10%	C = 27%	D = 40µM*	E = -12%
(28) N#C/C(=C\c1cccc(Cl)c1)C(=O)c1ccccc1
  A = -15%	B = 5%[57.1 µM]	C = -3%	D = 1%	E = 11µM*
(29) Cc1cc2ccccc2n1CCNC(=O)c1ccc(Br)o1
  A = 10%	B = 13%[57.1 µM]	C = -27%	D = 2%	E = 10µM*
(30) Cc1oc(-c2cccc(NC(=O)C3CCCN(C)C3)c2)nc1CNC(=O)c1coc2c1C(=O)CCC2 (stereo not drawn)
  A = x	B = x	C = x	D = 1%	E = x
(31) O=C1ON=C(c2ccc([N+](=O)[O-])cc2)/C1=C/c1ccccc1O
  A = x	B = 4%	C = -2%	D = 10%	E = 18µM*
(32) COc1ccc(-n2c(CNC(=O)c3cccc4ccccc34)nnc2SC)cc1
  A = x	B = x	C = x	D = 3%	E = x
(33) CC(CC(=O)O)CC(=O)Nc1cc([N+](=O)[O-])ccc1O (stereo not drawn)
  A = 1%	B = -4%[57.1 µM]	C = 1%	D = 1%	E = 0%[57.1 µM]
(34) COc1ccc([N+](=O)[O-])cc1NC(=O)CSCc1ccc(Br)cc1
  A = x	B = 3%[57.1 µM]	C = -9%	D = 4%	E = 8%[57.1 µM]
(35) Cc1ccc(SCC(=O)Nc2cc([N+](=O)[O-])ccc2O)cc1
  A = -2%	B = -4%[57.1 µM]	C = -30%	D = 16µM*	E = 18%[57.1 µM]
(36) O=C(CSCc1ccc(Cl)cc1)Nc1cc([N+](=O)[O-])ccc1O
  A = 1%	B = 11%[57.1 µM]	C = 10%	D = 14µM*	E = 20%[57.1 µM]
(37) Cc1ccc(-c2cn3c(n2)sc2cc(C(=O)NCCCc4ccccc4)ccc23)c(C)c1
  A = x	B = 18%	C = -1%	D = 7%	E = 38%
(38) COC(=O)c1ccc(CNC(=O)c2nc(Cn3nc(C)c(Br)c3C)no2)cc1
  A = x	B = 0%	C = -3%	D = 0%	E = 7%
(39) Cc1ccccc1C(=O)Nc1nnc(S(=O)(=O)N(C)Cc2ccco2)s1
  A = 0%	B = 4%	C = -13%	D = 1%	E = 45µM*
(40) CCCC(=O)Nc1nnc(S(=O)(=O)N(C)Cc2ccco2)s1
  A = -2%	B = -3%	C = -3%	D = 1%	E = 40µM*

Profiles, quoted from the list.
`O=C1ON=C(c2ccc([N+](=O)[O-])cc2)/C1=C/c1ccccc1O` is listed as GALK inh = x; TrxR1 substrate = 4%; miR-21 reporter = -2%; PINK1 modulator = 10%; rTrxR1 inhibitor = 18µM*
`CCCC(=O)Nc1nnc(S(=O)(=O)N(C)Cc2ccco2)s1` is listed as GALK inh = -2%; TrxR1 substrate = -3%; miR-21 reporter = -3%; PINK1 modulator = 1%; rTrxR1 inhibitor = 40µM*

(more compounds)
Screens by letter – A = GALK inh; B = TrxR1 substrate; C = miR-21 reporter; D = PINK1 modulator; E = rTrxR1 inhibitor
(41) Cc1ccccc1C(=O)Nc1nnc(S(=O)(=O)N(C)Cc2ccccc2)s1
  A = x	B = -4%	C = 1%	D = 1%	E = 8%
(42) CN(Cc1ccco1)S(=O)(=O)c1nnc(NC(=O)c2ccccc2Cl)s1
  A = 3%	B = 2%	C = -5%	D = 0%	E = 25µM*!
(43) Cc1ccc(S(=O)(=O)NCCc2cn3ccsc3n2)cc1
  A = x	B = 1%[57.1 µM]	C = -5%	D = 1%	E = 10%[57.1 µM]
(44) Cc1ccc(C(=O)NC(=S)Nc2ccc(S(=O)(=O)N3CCN(C)CC3)cc2)cc1
  A = x	B = -9%	C = -25%	D = -1%	E = 50µM*
(45) O=C(NC(=S)Nc1ccc(S(=O)(=O)N2CCCC2)cc1)c1cccs1
  A = -1%	B = -7%	C = 7%	D = 0%	E = 20µM*
(46) CC(=O)NC(=S)Nc1ccc(NC(=S)NC(=O)c2cccs2)cc1
  A = -2%	B = 4%	C = -3%	D = 4%	E = 38%
(47) CCN(CC)c1ccc(NC(=S)NC(=O)c2cccs2)cc1
  A = 4%	B = -7%[57.1 µM]	C = -64%	D = 1%	E = 79µM*
(48) CCOC(=O)CSc1nc2ccc(NC(=O)c3ccccc3F)cc2s1
  A = x	B = -5%	C = -17%	D = 4%	E = 16%
(49) CCCCOc1cccc(C(=O)N(Cc2ccc(Cl)cc2)C2CCS(=O)(=O)C2)c1 (stereo not drawn)
  A = x	B = 0%	C = 25%	D = -2%	E = 15%
(50) Cc1c(C(=O)Nc2nonc2-c2ccc(F)cc2)oc2ccc(F)cc12
  A = 2%	B = -1%	C = u	D = 28µM*	E = 26%
(51) CCCS(=O)(=O)c1nnnn1-c1cccc(OC)c1
  A = -1%	B = 10%	C = u	D = -5%[38.3 µM]	E = 3.5µM*
(52) COc1cccc(-n2nnnc2SCC(=O)Nc2ccccc2OC)c1
  A = 0%	B = -3%	C = -4%	D = 7%	E = 12%
(53) COc1cc(OC)cc(OC2(C)CCN(Cc3ccc(OC(C)C)cc3)C2)c1 (stereo not drawn)
  A = x	B = x	C = x	D = 45µM*	E = x
